Results published in US20130243764A1.

Legend:
[1] = target: TNF alpha (species not given); assay: cell-based or functional assay
[2] = target: TNF alpha (species not given); assay: ProteOn SPR reverse assay, biotinylated TNF alpha captured on NLC chip, antibody analyte, 1:1 model, apparent kinetics
[3] = target: recombinant cynomolgus FcRn (cynomolgus) (UniProt Q8SPV9); assay: ProteOn SPR, antibody amine-coupled on GLC chip, FcRn analyte, equilibrium model, pH 7.4, 25 C (no saturation; ranking only)
[4] = target: recombinant human FcγRIIIa (valine 158 variant) (human) (UniProt P08637); assay: ELISA, plate coated with recombinant human FcγRIIIa V158 at 1 µg/ml, anti-human kappa-HRP detection (Example 10) [a]
[5] = target: recombinant human FcRn (human) (UniProt P55899); assay: ProteOn SPR, antibody amine-coupled on GLC chip, FcRn analyte, equilibrium model, pH 6.0, 25 C
[6] = target: recombinant cynomolgus FcRn (cynomolgus) (UniProt Q8SPV9); assay: as above
[7] = target: recombinant human FcRn (human) (UniProt P55899); assay: ProteOn SPR, antibody amine-coupled on GLC chip, FcRn analyte, equilibrium model, pH 7.4, 25 C (no saturation; ranking only)
[8] = target: recombinant human tumour necrosis factor alpha (TNFα) (human) (UniProt P01375); assay: direct binding ELISA on human TNFα after the accelerated stressor study, 2 weeks at 37 °C (Example 7)
[9] = target: recombinant human tumour necrosis factor alpha (TNFα) (human) (UniProt P01375); assay: direct binding ELISA on human TNFα after 2 weeks at 37 °C in 25% human serum (Example 8)
[10] = target: recombinant cynomolgus FcRn (cynomolgus) (UniProt Q8SPV9); assay: ProteOn SPR, antibody captured on Protein L, cynomolgus FcRn analyte, equilibrium model, pH 7.4
[11] = target: recombinant human FcRn (human) (UniProt P55899); assay: ProteOn SPR, antibody captured on Protein L, human FcRn analyte, equilibrium model, pH 6, expt 5 (** treat with caution)
[12] = target: recombinant human FcRn (human) (UniProt P55899); assay: ProteOn SPR, antibody captured on Protein L, human FcRn analyte, equilibrium model, pH 6, expt 2
[13] = target: recombinant human FcRn (human) (UniProt P55899); assay: ProteOn SPR, antibody amine-coupled on GLC chip, FcRn analyte, equilibrium model, pH 7.4, 25 C (no saturation; ranking only); pH 7.4; antibody amine-coupled on GLC chip; no saturation, ranking only
[14] = target: recombinant human FcRn (human) (UniProt P55899); assay: ProteOn SPR, antibody amine-coupled on GLC chip, FcRn analyte, equilibrium model, pH 6.0, 25 C; pH 6.0; antibody amine-coupled on GLC chip
[15] = target: recombinant human FcRn (human) (UniProt P55899); assay: ProteOn SPR, antibody captured on Protein L, human FcRn analyte, equilibrium model, pH 6, expt 4
[16] = target: recombinant human FcRn (human) (UniProt P55899); assay: ProteOn SPR, antibody captured on Protein L, human FcRn analyte, pH 6.0; pH 6.0; Protein L capture; range over experiments, relative to BPC1492
[17] = target: recombinant human FcRn (human) (UniProt P55899); assay: ProteOn SPR, antibody captured on Protein L, human FcRn analyte, equilibrium model, pH 7.4, expt 5
[18] = target: recombinant cynomolgus FcRn (cynomolgus) (UniProt Q8SPV9); assay: ProteOn SPR, antibody captured on Protein L, cynomolgus FcRn analyte, pH 6
[19] = target: recombinant human FcRn (human) (UniProt P55899); assay: ProteOn SPR, antibody captured on Protein L, human FcRn analyte, equilibrium model, pH 7.4, expt 3
[20] = target: recombinant human FcRn (human) (UniProt P55899); assay: ProteOn SPR, antibody captured on Protein L, human FcRn analyte, equilibrium model, pH 7.4, expt 5 (** treat with caution)
[21] = target: recombinant human FcRn (human) (UniProt P55899); assay: ProteOn SPR, antibody captured on Protein L, human FcRn analyte, equilibrium model, pH 7.4, expt 2
[22] = target: recombinant human FcRn (human) (UniProt P55899); assay: ProteOn SPR, antibody captured on Protein L, human FcRn analyte, equilibrium model, pH 6, expt 3
[23] = target: recombinant human FcRn (human) (UniProt P55899); assay: ProteOn SPR, antibody captured on Protein L, human FcRn analyte, equilibrium model, pH 6, expt 1
[24] = target: recombinant human FcRn (human) (UniProt P55899); assay: ProteOn SPR, antibody captured on Protein L, human FcRn analyte, equilibrium model, pH 6, expt 5
[25] = target: recombinant cynomolgus FcRn (cynomolgus) (UniProt Q8SPV9); assay: ProteOn SPR, antibody captured on Protein L, cynomolgus FcRn analyte, equilibrium model, pH 6
[26] = target: recombinant cynomolgus FcRn (cynomolgus) (UniProt Q8SPV9); assay: ProteOn SPR, antibody captured on Protein L, cynomolgus FcRn analyte, equilibrium model, pH 6; pH 6; Protein L capture; batch Clinical grade
[27] = target: recombinant cynomolgus FcRn (cynomolgus) (UniProt Q8SPV9); assay: ProteOn SPR, antibody amine-coupled on GLC chip, FcRn analyte, equilibrium model, pH 7.4, 25 C (no saturation; ranking only); pH 7.4; antibody amine-coupled on GLC chip; no saturation, ranking only
[28] = target: recombinant cynomolgus TNF alpha (cynomolgus) (UniProt P79337); assay: Biacore T100 SPR, antibody captured on Protein A, TNF alpha analyte, 37 C
[29] = target: recombinant cynomolgus FcRn (cynomolgus) (UniProt Q8SPV9); assay: ProteOn SPR, antibody amine-coupled on GLC chip, FcRn analyte, equilibrium model, pH 6.0, 25 C; pH 6.0; antibody amine-coupled on GLC chip
[30] = target: recombinant cynomolgus FcRn (cynomolgus) (UniProt Q8SPV9); assay: ProteOn SPR, antibody captured on Protein L, cynomolgus FcRn analyte, equilibrium model, pH 6; pH 6; Protein L capture; batch GRITS44348
[31] = target: recombinant cynomolgus TNF alpha (cynomolgus) (UniProt P79337); assay: Biacore T100 SPR, antibody captured on anti-human IgG, TNF alpha analyte, 37 C

BPC1499 (antibody)
IC50 value, L929 neutralisation assay (cell viability) [1]: 0.21 µg/mL
IC50 value, TNFα-induced IL-6 release assay (whole blood) [1]: 0.14 nM
Kd [2]: 0.008 nM
koff [2]: 1.72e-05 s⁻¹
kon [2]: 2.27e+06 M⁻¹ s⁻¹

BPC1496 (antibody)
IC50 value, L929 neutralisation assay (cell viability) [1]: 1.18 µg/mL
IC50 value, TNFα-induced IL-6 release assay (whole blood) [1]: 0.64 nM
Kd [3]: 2100 nM
Kd [2]: 0.639 nM
EC50 (read off the curve) [4]: 0.008 µg/mL

BPC1493 (antibody)
Kd [5]: 264 nM
Kd [6]: 295 nM
Kd [7]: 4390 nM
Kd [3]: 4690 nM

BPC1501 (antibody)
Kd [2]: 0.06 nM

BPC1494 (antibody; other documents disagree on this pair)
EC50 (read off the curve) [8]: 0.02 µg/mL
EC50 (read off the curve) [9]: 0.02 µg/mL

BPC1498 (antibody)
Kd [5]: 357 nM
Kd [6]: 402 nM
Kd [7]: 5910 nM
Kd [3]: 6280 nM

BPC1494 (antibody)
Kd [10]: 14800 nM and 13300 nM and 13700 nM
IC50 value, L929 neutralisation assay (cell viability) [1]: 1.2 µg/mL
IC50 value, TNFα-induced IL-6 release assay (whole blood) [1]: 0.62 nM
Kd [11]: 6.08 nM
Kd [12]: 0.359 nM and 0.979 nM
Kd [13]: 2320 nM
Kd [6]: 239 nM
Kd [14]: 204 nM
Kd [3]: 2640 nM
Kd [15]: 1.33 nM and 4.05 nM and 4.5 nM
fold improvement in binding affinity compared to BPC1492 [16]: 3.5 fold
Kd [17]: 12600 nM and 11700 nM
Kd [2]: 0.484 nM
koff [2]: 0.00035 s⁻¹
kon [2]: 723000 M⁻¹ s⁻¹
fold improvement in binding affinity compared to BPC1492 [18]: 9 fold
Kd [19]: 1760 nM and 10500 nM and 10900 nM
Kd [20]: 2020 nM
Kd [21]: 2010 nM and 9190 nM and 9330 nM
Kd [22]: 0.701 nM and 1.96 nM and 2.43 nM
Kd [23]: 66 nM
Kd [24]: 24.9 nM and 26.2 nM
Kd [25]: 46.8 nM and 41.8 nM and 43.2 nM

BPC1492 (antibody)
Kd [26]: 394 nM
Kd [27]: 29700 nM
Kd [28]: 0.101 nM
Kd [29]: 579 nM
Kd [30]: 398 nM
Kd [31]: 0.191 nM
EC50 (read off the curve) [4]: 0.008 µg/mL

BPC1496 (antibody; other documents disagree on this pair)
EC50 (read off the curve) [8]: 0.01 µg/mL
EC50 (read off the curve) [9]: 0.02 µg/mL

Values joined by “and” are separate entries in the source; they are usually repeats but may differ in a detail not shown here. Equal entries are not always repeated.
